Yeast mating assay 2: variants of the scFv Ab-91

Target peptide (SARS-CoV-2 spike, HR2 region): PDVDLGDISGINAS

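Phage display of a naive human antibody library on the peptide gave the parent. AAYL51 was designed without a model: most single CDR substitutions and a random sample of double and triple ones. The scFvs were displayed on barcoded MATa yeast, the peptide on MATalpha yeast. Binding brings cells together so that they mate, and sequencing counts the barcode pairs among the diploids. Read counts were normalised to the haploid input and turned into Kd by a linear fit to BCL2-family pairs of known affinity, for each replicate. Mating was done three times.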

The variants keep the light chain, the linker and the frameworks of Ab-91 (scFv order VL, the linker GGGGSGGGGSGGGGS, VH).
VL: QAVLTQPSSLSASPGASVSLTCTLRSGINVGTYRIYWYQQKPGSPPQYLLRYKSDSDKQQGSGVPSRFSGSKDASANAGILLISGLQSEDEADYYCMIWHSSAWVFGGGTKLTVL
VH: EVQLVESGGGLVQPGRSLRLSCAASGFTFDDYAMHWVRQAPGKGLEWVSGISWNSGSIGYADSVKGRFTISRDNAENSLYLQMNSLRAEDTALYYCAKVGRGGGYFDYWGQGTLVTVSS

Changes read parent residue, position, new residue, counted from the first residue of the VH shown.
Scale: log10 of Kd in nM, estimated from mating counts; low values are strong binders.
A mean of the replicates is given; it leaves out those without a signal.
"no signal" marks a missing value. The strain was present, yet no cells mated with the target were sequenced in any replicate, which points to weak or no binding.
As a blank, each scFv also met three strains without target: over library AAYL51, 21% of these pairings were detected, typically at 4.54 and seldom below 3.26. Also given: how often the same scFv was detected with the empty control strains.

changes | mean, log10 nM | seen in | empty controls
G26P+H35Q+G59F | 5.36 | 3 of 3 | 4 of 9
A61Q+S63A+G100N | 3.11 | 3 of 3 | 1 of 9
F29C+G50V+I51W | no signal | 0 of 3 | 1 of 9
F29H+G59S | no signal | 0 of 3 | 4 of 9
G50H+A61E+G102N | no signal | 0 of 3 | 0 of 9
Y32W+H35V+G56D | no signal | 0 of 3 | 2 of 9
Y32W+A61H+V64H | no signal | 0 of 3 | 2 of 9
G26F+G50L+S52Q | 3.77 | 1 of 3 | 1 of 9
Y32G+D62M+V99F | no signal | 0 of 3 | 1 of 9
M34Q+S57I | no signal | 0 of 3 | 3 of 9
S55Y+K65T | no signal | 0 of 3 | 0 of 9
N54P+I58H+S63N | 4.92 | 1 of 3 | 3 of 9
Y32E+N54M+I58K | 4.06 | 1 of 3 | 1 of 9
M34V+A61E+K65A | no signal | 0 of 3 | 0 of 9
G26D+D30K+Y108H | 1.09 | 3 of 3 | 1 of 9
I51K+F106E+Y108F | no signal | 0 of 3 | 0 of 9
T28D+V99C+Y105D | 3.16 | 3 of 3 | 8 of 9
D31V+F106N+Y108T | no signal | 0 of 3 | 3 of 9
S63D+G104F+F106E | no signal | 0 of 3 | 0 of 9
W53Q+S63E+D107H | 2.55 | 3 of 3 | 3 of 9
G26I+H35Y+I51P | no signal | 0 of 3 | 4 of 9
I51E+G102P+G103R | 4.97 | 1 of 3 | 1 of 9
V99E+R101P+G102A | no signal | 0 of 3 | 2 of 9
F27S+W53C+G100H | 5.21 | 3 of 3 | 7 of 9
D30A+S55D+D62F | 4.18 | 2 of 3 | 6 of 9
A33F+Y105W+Y108I | 4.86 | 1 of 3 | 1 of 9
I58L+V99K+Y105L | no signal | 0 of 3 | 1 of 9
I58S+G59W | 5.12 | 3 of 3 | 8 of 9
H35Q+G100Q+G103T | 5.22 | 1 of 3 | 2 of 9
T28E+G50I+Y60W | 4.11 | 1 of 3 | 1 of 9
W53A+G56A+A61M | 1.30 | 3 of 3 | 1 of 9
I51V+V64K+V99N | 5.25 | 2 of 3 | 1 of 9
A33M+I51V | 4.67 | 1 of 3 | 1 of 9
G102T+F106W+Y108R | 4.47 | 3 of 3 | 7 of 9
A33N+G50E+A61C | 5.52 | 2 of 3 | 5 of 9
Y32R+G103F+Y108H | no signal | 0 of 3 | 4 of 9
G26E+Y32H+G104F | 4.95 | 2 of 3 | 2 of 9
T28R+Y60V+D107Q | no signal | 0 of 3 | 1 of 9
Y32E+N54Y+Y105R | 4.28 | 1 of 3 | 3 of 9
G26P+D31F+Y60N | no signal | 0 of 3 | 1 of 9
Y32Q+A33D+S63Q | 5.31 | 3 of 3 | 8 of 9
S55P+G103T+D107P | 2.90 | 2 of 3 | 0 of 9
S52Q+G56I+I58Q | 4.63 | 1 of 3 | 8 of 9
Y32S+S52T+R101M | no signal | 0 of 3 | 0 of 9
H35T+S52Q+D107M | no signal | 0 of 3 | 0 of 9
F29H+S55W+D62W | no signal | 0 of 3 | 0 of 9
S57C+I58S+Y60P | 4.91 | 2 of 3 | 2 of 9
S55V+I58H+Y108W | no signal | 0 of 3 | 0 of 9
G56N+I58M+A61T | no signal | 0 of 3 | 0 of 9
Y32T+H35T+I58C | no signal | 0 of 3 | 0 of 9
Y32H+G59N+V99Q | 5.30 | 2 of 3 | 5 of 9
N54G+V64T+K65D | no signal | 0 of 3 | 1 of 9
M34K+R101M+G102Q | 6.46 | 1 of 3 | 2 of 9
T28D+Y60N+R101I | no signal | 0 of 3 | 0 of 9
I51Y+S57L+F106H | no signal | 0 of 3 | 0 of 9
S63G+R101E+F106M | 1.90 | 3 of 3 | 0 of 9
F29H+N54K+G103V | 5.12 | 2 of 3 | 3 of 9
S52I+R101V+Y105A | 5.09 | 3 of 3 | 6 of 9
F27L+G50P+G100N | 5.45 | 3 of 3 | 6 of 9
G26D+F29R+H35R | 6.41 | 1 of 3 | 5 of 9
G104I+Y105P | 1.54 | 3 of 3 | 0 of 9
G56A+G100Y+D107Q | no signal | 0 of 3 | 0 of 9
D31N+Y32M | no signal | 0 of 3 | 1 of 9
I58P+G103A+G104W | no signal | 0 of 3 | 4 of 9
F29A+Y60T+Y108T | 5.25 | 3 of 3 | 6 of 9
A33L+W53E+F106P | 4.42 | 1 of 3 | 3 of 9
G50N+S55E+S57V | 4.10 | 2 of 3 | 1 of 9
F29S+G50Y | 5.98 | 1 of 3 | 3 of 9

Parent in this assay: reference entry 1.86, copy in this library 0.88.

Reference: Engelhart et al. 2022, doi:10.1038/s41597-022-01779-4. File: FLAb, binding data.